The test has as its system E. Coli (C), Pseudomonas putita (PU), Pseudomonas sydngae (SY), Pseudomonas fluorescens (FL). Nature of the test: Bacterial cells grown on LB plates with increasing concentrations of TNT and RDX.

Structures are written as SMILES. Only a part of the results on these compounds is given; other tests are left out.

In the case of `O=[N+]([O-])N1CN([N+](=O)[O-])CN([N+](=O)[O-])C1`, the “resistance of bacteria towards the explosives” value is “PU and FL show more resistance”. For `Cc1c([N+](=O)[O-])cc([N+](=O)[O-])cc1[N+](=O)[O-]` the value was “PU and FL show more resistance”.

These data come from US20050289662A1, “Reporter system for plants” (published 2005).
